The values below come from patent publication US20210196681A1, “SELECTIVE PRESENILIN-2 GAMMA-SECRETASE INHIBITORS” (UNIVERSITEIT MAASTRICHT, priority 2018, published 2021).

The subject of this assay is NICD1-Val1744 (γ-secretase cleavage of Notch1). As to conditions: DBZ 0.2 μM, 24 hours; irrespective of the γ-secretase complex; FIG. 2A.

For the compound `C1=Cc2ccccc2-c2ccccc2N1` [DBZ, dibenzazepine], the NICD1-Val1744 cleavage entry is “blocked”.
